Earlier results, collected in patent US12195551B2, “Combination of an ErbB-2/ErbB-3 bispecific antibody with endocrine therapy for breast cancer” (Merus N.V., priority 2017, dated 2025).

Details: human, in vivo; cited from earlier work

trastuzumab: anti-ErbB-2 monoclonal antibody that binds domain IV of ErbB-2
patients who develop cardiac dysfunction: 5-10% | risk for developing asymptomatic cardiac dysfunction: about 25%
